Structures are written as SMILES. The list shows a part of the results, in another mix than the full data. Activity calls are given as the source filed them. Cut-off read from the data, not from the text of the source: active = inhibition above about 30%; inactive = the rest.

Sequences of proteins named here, by UniProt entry; tags and fusion partners are left off. A change or cut given only in a name is not applied to a line headed by its entry.
UniProt P00748: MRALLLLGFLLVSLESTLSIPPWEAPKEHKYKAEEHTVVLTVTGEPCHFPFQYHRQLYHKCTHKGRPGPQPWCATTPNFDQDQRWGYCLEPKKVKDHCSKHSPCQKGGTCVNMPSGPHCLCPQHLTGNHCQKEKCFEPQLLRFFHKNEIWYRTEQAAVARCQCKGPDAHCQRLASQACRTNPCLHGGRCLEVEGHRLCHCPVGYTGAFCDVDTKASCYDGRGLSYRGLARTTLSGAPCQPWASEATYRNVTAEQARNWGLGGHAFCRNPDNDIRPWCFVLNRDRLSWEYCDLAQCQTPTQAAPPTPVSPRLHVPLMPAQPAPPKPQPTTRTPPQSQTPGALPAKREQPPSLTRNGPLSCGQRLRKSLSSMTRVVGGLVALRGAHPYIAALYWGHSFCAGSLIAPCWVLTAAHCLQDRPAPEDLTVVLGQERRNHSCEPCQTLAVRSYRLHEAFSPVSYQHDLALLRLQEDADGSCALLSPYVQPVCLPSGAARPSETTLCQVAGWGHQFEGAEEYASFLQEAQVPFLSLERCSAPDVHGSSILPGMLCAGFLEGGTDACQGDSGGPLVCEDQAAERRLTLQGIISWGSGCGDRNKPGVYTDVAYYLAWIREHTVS

The results in this text go back to PubChem BioAssay AID701 (PCMD, 2007).

This test deals with Coagulation factor XII (Homo sapiens) (UniProt P00748). As to the kind of experiment: human FXIIa protease inhibitors, primary screen, biochemical, single well (AID 701).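 Note: 0% = enzyme with vehicle only and 100% = no enzyme blank.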 The conditions noted are these: purified human FXIIa, AMC substrate fluorescence, 2 h; at 10 µM; active compounds read high.
On to `CCC(C)N(CC(C)C)C(=S)SC(NC(C)=O)C(Cl)(Cl)Cl` (stereo not drawn), for which the inhibition (as a rule, the relative decrease from the control value, in per cent) was inactive: -0.83%.

With `CC1(CBr)Cn2c(nc3ccccc3c2=O)S1` (stereo not drawn), the inhibition was inactive: -14.3%.

As to `Cc1cccc(OCC(=O)OC2CN3CCC2CC3)c1` (stereo not drawn), the inhibition is inactive: 2.66%.

As to `COC(=O)c1cc2c(s1)N=C(c1ccccc1)N(C)P2(=O)N1CCOCC1` (stereo not drawn), the inhibition was inactive: 7.73%.

For the molecule `O=[N+]([O-])c1cccc2n[nH]nc12`, the inhibition is inactive: -9.12%.

On to `CC1CCN(C(=O)Oc2c(Cl)cc(Cl)c3cccnc23)CC1`, for which the inhibition was inactive: -18.1%.

As for `CCOP(=O)(Nc1ccccc1)OCC`, the inhibition was inactive: 1.28%.

As for `Oc1ccccc1CNc1ccccn1`, the inhibition is inactive: 10.2%.
